## Apparent affinities of Ab-14 variants for a coronavirus HR2 peptide

Reference: Li et al. 2023, doi:10.1038/s41467-023-39022-2. File: FLAb, binding data.

Binding partner: SARS-CoV-2 spike HR2 peptide, sequence PDVDLGDISGINAS.

Each scFv is VH, three GGGGS repeats, VL, as in the parent Ab-14, and differs from it in the CDRs of the light chain only.
VH: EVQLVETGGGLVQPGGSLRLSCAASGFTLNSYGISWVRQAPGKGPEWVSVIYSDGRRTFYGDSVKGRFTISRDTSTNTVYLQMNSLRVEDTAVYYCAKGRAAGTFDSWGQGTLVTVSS
VL: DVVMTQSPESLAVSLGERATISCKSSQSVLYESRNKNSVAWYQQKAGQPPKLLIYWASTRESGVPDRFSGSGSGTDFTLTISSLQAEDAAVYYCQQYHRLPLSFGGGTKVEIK

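Designed CDR sequences, proposed from the first random library and measured here. Their group label is 14L_GP_Gen (GP: Gaussian process model; Gen: genetic algorithm; a sequence that several methods proposed may carry one label only). AlphaSeq pools MATa yeast showing the antibodies with MATalpha yeast showing the peptide. Mating (16 h, 30 °C) was followed by selection of diploids and sequencing of their barcodes. Each replicate has its own calibration line, from reference interactions of the BCL2 family. There are six technical replicates.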

The parent's light chain CDRs are KSSQSVLYESRNKNSVA, WASTRES, QQYHRLPLS; each variant's own CDRs replace them letter for letter.
Numbers give log10(Kd / nM), so 0 is 1 nM and 3 is 1 µM. Smaller is tighter.
A mean of the replicates is given; it leaves out those without a signal.

| # | CDR-L1 | CDR-L2 | CDR-L3 | log10 Kd (nM) by replicate | log10 Kd (nM), mean | empty controls |
|---|---|---|---|---|---|---|
| 1 | KVQQSYLYESRNKNSVA | NASQRES | QQYHRLPLS | -0.13 -0.26 -0.20 -0.51 -0.32 -0.22 | -0.27 | 3 of 18 (2.14) |
| 2 | KLSQSELYESRNKNSVA | NASTRES | QQYHRLPLQ | -0.14 0.11 -0.13 -0.26 -0.16 -0.02 | -0.10 | 0 of 18 |
| 3 | KLSQSQLYESRNWNSVA | NASTRES | QQYHRLPLS | 0.37 0.08 -0.05 -0.19 -0.15 0.17 | 0.04 | 1 of 18 (3.40) |
| 4 | KLPQSWLYESRNKNSVA | NASTRMS | QQYHRLPLS | -0.14 -0.05 -0.04 -0.27 -0.20 0.15 | -0.09 | 1 of 18 (2.89) |
| 5 | KLQQSVLYQSRNKNSVA | EASTRES | QQYHRLPLS | 0.25 0.03 -0.02 -0.16 -0.12 0.06 | 0.01 | 0 of 18 |
| 6 | KLMQSWLYESRNKNSVA | HASQRES | QQYHRLPLS | 0.33 0.31 0.18 0.09 0.00 0.26 | 0.20 | 5 of 18 (3.53) |
| 7 | KLSQSQLYESRNKNSVA | NASQREQ | QQYHRLPLS | -0.05 -0.08 -0.30 -0.41 -0.17 -0.14 | -0.19 | 2 of 18 (3.01) |
| 8 | KMSQSQLYESRNKNSVA | NASQRES | QQYHRLPLS | -0.12 -0.07 -0.33 -0.23 -0.19 -0.07 | -0.17 | 1 of 18 (1.93) |
| 9 | KLSQSVLYESRMKNNVA | NASQRES | QQYHRLPLS | 0.17 0.32 -0.01 0.00 0.06 0.08 | 0.10 | 0 of 18 |
| 10 | KLSQSVLYQSRNKNNVA | NASTRES | QQYHRLPLS | -0.08 -0.19 -0.26 -0.33 -0.33 -0.12 | -0.22 | 1 of 18 (2.92) |
| 11 | HLSQSELYESRNKNSVA | NASTRES | QQYHRLPLS | 0.22 -0.01 -0.02 -0.21 -0.11 -0.05 | -0.03 | 5 of 18 (3.80) |
| 12 | KISQSVLYESRNKNSVA | NASTREQ | QQYHRLPLS | -0.68 -0.59 -0.76 -0.66 -0.74 -0.52 | -0.66 | 0 of 18 |
| 13 | KLSMSMLYESRNKNSVA | EASTRES | QQYHRLPLS | -0.11 -0.11 -0.11 -0.46 -0.23 -0.20 | -0.20 | 0 of 18 |
| 14 | KLPQSVLYEERNKNSVA | NASQRES | QQYHRLPLS | -0.42 -0.51 -0.65 -0.61 -0.56 -0.36 | -0.52 | 0 of 18 |
| 15 | KLSQSDLYESRNKNNVA | GASQRES | QQYHRLPLS | -0.48 -0.13 0.03 -0.35 -0.27 -0.47 | -0.28 | 1 of 18 (1.02) |
| 16 | KLSQSVLYESRMKNAVA | NASQRES | QQYHRLPLS | -0.48 -0.63 -0.72 -0.63 -0.54 -0.42 | -0.57 | 1 of 18 (4.28) |
| 17 | KVSQSVLYEDRNKNSVA | NASTRES | QQYHRLPLQ | -0.42 -0.74 -1.06 -1.22 -0.86 -0.66 | -0.83 | 0 of 18 |
| 18 | KLEQSNLYESRNKNSVA | NASTRLS | QQYHRLPLS | 0.32 0.18 0.13 0.00 0.00 0.11 | 0.12 | 1 of 18 (2.92) |
| 19 | KVQQSNLYESRNKNSVA | NASTRES | QQYHRLPLS | 0.05 0.00 -0.07 -0.16 0.03 0.13 | 0.00 | 1 of 18 (2.74) |
| 20 | KLSQSQLYESRNKNNVA | QASTRES | QQYHRLPLS | -0.29 -0.45 -0.55 -0.61 -0.47 -0.38 | -0.46 | 0 of 18 |
| 21 | KLSQSWLYESRNANSVA | NASQRES | QQYHRLPLS | 0.13 0.16 0.10 0.27 0.08 0.28 | 0.17 | 1 of 18 (2.21) |
| 22 | KLSQSELYESRNPNSVA | NASQRES | QQYHRLPLS | -0.02 -0.11 -0.34 -0.41 -0.23 -0.17 | -0.21 | 2 of 18 (1.85) |
| 23 | KLQQSVLYESRNKNSVA | NASTRMQ | QQYHRLPLS | -0.12 -0.16 -0.08 -0.52 -0.15 -0.05 | -0.18 | 1 of 18 (2.09) |
| 24 | KLSQSDLYESRNSNSVA | HASTRES | QQYHRLPLS | 0.08 -0.13 -0.07 0.03 -0.05 -0.10 | -0.04 | 1 of 18 (2.02) |
| 25 | KLSQSVLYESRNKNSVA | DASTRCD | QQYHRLPLS | -0.04 -0.30 -0.42 -0.43 -0.30 -0.23 | -0.29 | 4 of 18 (3.03) |
| 26 | KLEFSWLYESRNKNSVA | NASQRES | QQYHRLPLS | 0.09 -0.07 -0.54 -0.18 -0.07 -0.07 | -0.14 | 0 of 18 |
| 27 | KLSQSVLYESRNKNSVA | NASTREQ | QQYHRLPLS | 0.04 -0.04 -0.21 -0.29 -0.18 0.02 | -0.11 | 2 of 18 (2.33) |
| 28 | KLQQSVEYESRNKNSVA | NASTRMS | QQYHRLPLS | 0.19 0.19 0.15 0.26 0.07 0.31 | 0.20 | 1 of 18 (3.18) |
| 29 | KLSQSDGYESRNKNSVA | EASTRES | QQYHRLPLS | -0.28 -0.20 -0.27 -0.38 -0.37 -0.08 | -0.26 | 1 of 18 (2.15) |
| 30 | KLSQSMLYESRNKNSVA | NASTRES | QDYHRLPLS | 0.37 0.21 0.20 0.18 0.12 0.37 | 0.24 | 2 of 18 (2.48) |
| 31 | KLSQSVLYESRNKNSVA | QASTRLS | QQYHRLPLS | 0.13 0.16 0.02 -0.12 0.10 0.10 | 0.06 | 0 of 18 |
| 32 | KLSQSHLYESRNKNSVA | GASTRES | QQYHRLPLS | 0.23 -0.05 0.03 0.04 -0.07 0.32 | 0.08 | 0 of 18 |
| 33 | KLSQSELYESRNKNSVA | NASTRMV | QQYHRLPLS | -0.07 -0.13 -0.19 -0.49 -0.41 -0.18 | -0.24 | 0 of 18 |
| 34 | KLSQSVPYESRNKNSVA | EASTRES | QAYHRLPLS | 0.60 0.73 0.54 0.44 0.37 0.93 | 0.60 | 0 of 18 |
| 35 | KVSQSMLYESRNKNSVA | EASQRES | QQYHRLPLS | 0.06 -0.16 -0.30 -0.52 -0.24 -0.19 | -0.22 | 1 of 18 (3.27) |
| 36 | KVSQSVLYQSRNKNSVA | HASTRES | QQYHRLPLS | -0.15 -0.18 -0.38 -0.19 -0.06 -0.08 | -0.17 | 0 of 18 |
| 37 | KLQQSVGYESRNKNSVA | QASTRES | QQYHRLPLS | 0.32 -0.09 0.10 0.05 0.33 0.38 | 0.18 | 0 of 18 |
| 38 | KLDQSVLYESRNKNSVA | DASTRES | QQYHRLPLS | -0.33 -0.46 -0.45 -0.60 -0.49 -0.44 | -0.46 | 0 of 18 |
| 39 | KLSQSELYESRVKNSVA | NASTRES | QQYHRLPLS | 0.31 0.23 -0.02 0.16 0.32 0.29 | 0.22 | 0 of 18 |
| 40 | KLSWSYLYESRNKNSVA | NASTRES | QQYHRLPLS | 1.08 -0.57 0.12 0.11 -0.12 -0.08 | 0.09 | 0 of 18 |
| 41 | KLSQSVLYESRMKNSVA | NASTRES | QQYHRLPLS | -0.24 -0.18 -0.35 -0.53 -0.25 -0.20 | -0.29 | 1 of 18 (2.10) |

Excerpt, the first 5 entries:

{"CDR-L1": "KVQQSYLYESRNKNSVA", "CDR-L2": "NASQRES", "CDR-L3": "QQYHRLPLS", "log10 Kd (nM) by replicate": "-0.13 -0.26 -0.20 -0.51 -0.32 -0.22", "log10 Kd (nM), mean": "-0.27", "empty controls": "3 of 18 (2.14)"}
{"CDR-L1": "KLSQSELYESRNKNSVA", "CDR-L2": "NASTRES", "CDR-L3": "QQYHRLPLQ", "log10 Kd (nM) by replicate": "-0.14 0.11 -0.13 -0.26 -0.16 -0.02", "log10 Kd (nM), mean": "-0.10", "empty controls": "0 of 18"}
{"CDR-L1": "KLSQSQLYESRNWNSVA", "CDR-L2": "NASTRES", "CDR-L3": "QQYHRLPLS", "log10 Kd (nM) by replicate": "0.37 0.08 -0.05 -0.19 -0.15 0.17", "log10 Kd (nM), mean": "0.04", "empty controls": "1 of 18 (3.40)"}
{"CDR-L1": "KLPQSWLYESRNKNSVA", "CDR-L2": "NASTRMS", "CDR-L3": "QQYHRLPLS", "log10 Kd (nM) by replicate": "-0.14 -0.05 -0.04 -0.27 -0.20 0.15", "log10 Kd (nM), mean": "-0.09", "empty controls": "1 of 18 (2.89)"}
{"CDR-L1": "KLQQSVLYQSRNKNSVA", "CDR-L2": "EASTRES", "CDR-L3": "QQYHRLPLS", "log10 Kd (nM) by replicate": "0.25 0.03 -0.02 -0.16 -0.12 0.06", "log10 Kd (nM), mean": "0.01", "empty controls": "0 of 18"}

The parent sequence was in this pool as ten entries: three were never detected, three once, and four in most replicates, with averages from 0.34 to 2.37.
As a blank, each scFv also met three strains without target: over all light chain designs, 4% of these pairings were detected, typically at 2.64 and seldom below 1.59. Also given: how often the same scFv was detected with the empty control strains, with their mean in brackets.
The authors averaged sequences with at least three values out of six and counted those with two or fewer as poor binders.
The range of this assay differs from that of the first round, and the authors advise against merging the two.